Data as given in US9511086B2, “Method for improving immune system function by administering agents that inhibit DNA-dependent protein kinase-directed apoptosis” (The Board of Trustees of the Leland Stanford Junior …, priority 2010, dated 2016).

Tested on: CD4+CD45RO− T cells from RA patients and controls
Assay: T-cell apoptosis (PI) with homeostatic cytokines
Type: cell-based, human
Conditions: 72 h culture; IL-2 20 U/ml, IL-7 20 ng/ml, IL-15 10 ng/ml; similar in control and RA T cells
Description: FIG. 1. Apoptotic susceptibility and DNA damage in naïve CD4 T cells from RA patients. CD4+CD45RO− T cells were isolated from the peripheral blood of RA patients and controls. Cells were maintained in culture without mitogenic stimulation for 72 h. (A) T cells undergoing apoptosis were identified by Annexin V and 7-AAD staining in patient-derived and control samples. Data are given as mean±SEM from 6 patients and 6 controls. (B) Representative data from one patient and one control collected after 72 h are shown. (C) Cells were maintained in culture with IL-2 (20 U/ml), IL-7 (20 ng/ml), IL-15 (10 ng/ml), or a mixture of the three (Mix) for 72 h. […] (D) DNA breaks were quantified by comet assay after 72 h. Data are given as mean±SEM of 7 patients and 6 controls with a minimum of 90 individual cells analyzed in each sample. […] (F) The level of 8-oxoguanine in 5 RA and 5 control samples is given as mean fluorescence intensity (MFI) of FITC-8-oxoguanine±SEM. (G) 53BP1 foci were determined by immunofluorescence staining and confocal laser microscopy after 72 h. […]
To quantify T-cell apoptosis, CD4^+CD45RO^− cells were washed and suspended in 500 μl FACS buffer supplemented with EasyComp Blank Particles (Spherotech, Lake Forest, Ill.). Uptake of PI (Sigma-Aldrich) was determined by flow cytometry. Apoptotic cells were detected with PE-Annexin V (BD Biosciences, San Jose, Calif.) and 7-AAD (BD Biosciences).

Substance: IL-2: growth-promoting, T-cell homeostatic cytokine
- apoptosis rates / T-cell attrition: prevented only one-third of the T-cell attrition
